Type in all cases: cell-based, human
One series concerns DU-145 (Prostate). The series can be described thus: NCI Developmental Therapeutics antiproliferative assay, DU-145. The method, then:
(§1) Biological Results. The indenoisoquinoline analogues were tested for antiproliferative activity in the National Cancer Institute's Developmental Therapeutics Assay against cell lines derived from approximately 60 different human tumors. […] Results are reported in Table 2 as GI50 values for selected cell lines, and overall antiproliferative potency is quantified as a mean-graph midpoint (MGM).

The test system of another series is HOP-62 (Lung). Briefly: NCI Developmental Therapeutics antiproliferative assay, HOP-62. The method, then:
as §1

The test system of another series is HCT-116 (Colon). The series can be described thus: NCI Developmental Therapeutics antiproliferative assay, HCT-116. The method, then:
as §1

In another series the test system is UACC-62 (Melanoma). The series can be described thus: NCI Developmental Therapeutics antiproliferative assay, UACC-62. The procedure: as §1

Structures are written as SMILES.

Consider `O=C1c2ccccc2-c2c1c1ccccc1c(=O)n2C[C@@H](O)[C@H](O)[C@H](O)CO` [Compound 17a, (2′R, 3′S, 4′R)-5,6-Dihydro-6-(2′,3′,4′,5′-tetrahydroxypentyl)-5,11-dioxo-11H-indeno[1,2-c]isoquinoline], for which growth with DU-145 (Prostate) was halved (GI50) at 16.6 µM.
In the case of `O=C1c2ccccc2-c2c1c1ccccc1c(=O)n2C[C@H](O)[C@H](O)[C@H](O)CO` [Compound 17b, (2′S,3′S,4′R)-5,6-Dihydro-6-(2′,3′,4′,5′-tetrahydroxypentyl)-5,11-dioxo-11H-indeno[1,2-c]isoquinoline], the GI50 (commonly the concentration that inhibits growth by half) in the series with HOP-62 (Lung) was 2.95 µM; in the series with HCT-116 (Colon), 3.39 µM; in the series on DU-145 (Prostate), 1.32 µM.
As to `O=C1c2ccccc2-c2c1c1ccccc1c(=O)n2C[C@H](O)[C@@H](O)[C@H](O)CO` [Compound 17d, (2′S,3′R,4′R)-5,6-Dihydro-6-(2′,3′,4′,5′-tetrahydroxypentyl)-5,11-dioxo-11H-indeno[1,2-c]isoquinoline], the GI50 with HCT-116 (Colon) is 3.39 µM; in the series with UACC-62 (Melanoma) it was 2.88 µM.
In the case of `O=C1c2ccccc2-c2c1c1ccccc1c(=O)n2C[C@@H](O)[C@@H](O)[C@H](O)CO` [Compound 17e, (2′R,3′R,4′R)-5,6-Dihydro-6-(2′,3′,4′,5′-tetrahydroxypentyl)-5,11-dioxo-11H-indeno[1,2-c]isoquinoline], the GI50 in the series on HCT-116 (Colon) worked out at 3.39 µM; in the series on DU-145 (Prostate) it was 3.98 µM.

The values above are taken from patent US9682990B2, “Alcohol-, diol-, and carbohydrate-substituted indenoisoquinolines as topoisomerase I inhibitors” (Purdue Research Foundation, priority 2011, dated 2017).
